# Earlier results as cited in article PMC5218887 (Neurochemistry International, 2017).
# The chains behind the UniProt entries cited, without tags or fusion partners.
# UniProt P32245, whole entry, species assumed: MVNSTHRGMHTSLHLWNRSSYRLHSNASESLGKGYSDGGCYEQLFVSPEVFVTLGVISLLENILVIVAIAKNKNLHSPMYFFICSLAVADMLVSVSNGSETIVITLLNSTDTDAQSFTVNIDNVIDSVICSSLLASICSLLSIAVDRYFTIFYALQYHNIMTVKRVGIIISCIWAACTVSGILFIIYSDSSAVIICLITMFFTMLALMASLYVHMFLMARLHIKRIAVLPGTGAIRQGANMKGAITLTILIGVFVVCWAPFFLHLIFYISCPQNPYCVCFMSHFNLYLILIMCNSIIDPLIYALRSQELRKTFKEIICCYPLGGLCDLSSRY
# Biological target: MC4R (Homo sapiens, UniProt P32245)
# Settings: ref Pritchard et al., 2004; cited from earlier work
substance,measurement,value
γ1-melanocyte stimulating hormone [γ1-MSH],activity on the MC4R,did not have activity
